Assay results taken from ChEMBL document CHEMBL1153372, “A selective matrix metalloprotease 12 inhibitor for potential treatment of chronic obstructive pulmonary disease (COPD): discovery of (S)-2-(8-(methoxycarbonylamino)dibenzo[b,d]furan-3-sulfonamido)-3-methylbutanoic acid (MMP408)” (J Med Chem, 2009).

What follows are molecules tested against Collagenase 3 (Homo sapiens, UniProt P45452) (assay: Inhibition of human recombinant MMP13 expressed in Escherichia coli).

Row | IC50 [nM] | Compound
1 | 1100 | CC(C)[C@@H](NS(=O)(=O)c1ccc2oc3cc(NS(C)(=O)=O)ccc3c2c1)C(=O)O
2 | 1.3 | CC(C)[C@H](NS(=O)(=O)c1ccc(-c2ccc(NC(=O)c3cc4ccccc4o3)cc2)cc1)C(=O)O
3 | 25000 | CC(C)[C@H](NS(=O)(=O)c1ccc2oc3cc(NS(C)(=O)=O)ccc3c2c1)C(=O)O
